Data from patent EP1083874B1, “Use of a compound for the preparation of a medicament for treating alopecia or promoting hair growth in an animal” (GPI NIL Holdings, Inc., priority 1998, dated 1999).

By UniProt entry, the sequences of proteins in these tests, tags left out.
UniProt P62942, whole entry, species assumed: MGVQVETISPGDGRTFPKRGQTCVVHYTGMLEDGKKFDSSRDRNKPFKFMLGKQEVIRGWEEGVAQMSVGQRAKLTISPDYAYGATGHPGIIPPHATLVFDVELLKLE

target: FKBP12 (Homo sapiens, UniProt P62942); test: Ki test procedure: inhibition of peptidyl-prolyl isomerase (rotamase) activity, chymotrypsin-coupled assay; assay type: biochemical; conditions: apparent Ki
Description: The compounds used in the pharmaceutical compositions have an affinity for the FK506 binding protein, particularly FKBP12. The inhibition of the prolyl peptidyl cis-trans isomerase activity of FKBP may be measured as an indicator of this affinity.
Inhibition of the peptidyl-prolyl isomerase (rotamase) activity of the compounds used in the pharmaceutical compositions can be evaluated by known methods described in the literature (Harding et al., Nature, 1989, 341:758-760; Holt et al. J. Am. Chem. Soc., 115:9923-9938). These values are obtained as apparent Ki's and are presented for representative compounds in TABLE III.
The cis-trans isomerization of an alanine-proline bond in a model substrate, N-succinyl-Ala-Ala-Pro-Phe-p-nitroanilide, is monitored spectrophotometrically in a chymotrypsin-coupled assay, which releases para-nitroanilide from the trans form of the substrate. The inhibition of this reaction caused by the addition of different concentrations of inhibitor is determined, and the data is analyzed as a change in first-order rate constant as a function of inhibitor concentration to yield the apparent Ki values.
In a plastic cuvette are added […] of ice cold assay buffer (25 mM HEPES, pH 7.8, 100 mM NaCl), 10 mL of FKBP (2.5 mM in 10 mM Tris-Cl pH 7.5, 100 mM NaCl, 1 mM dithiothreitol), 25 mL of chymotrypsin (50 mg/ml in 1 mM HCl) and […] of test compound at various concentrations in dimethyl sulfoxide. The reaction is initiated by the addition of 5 mL of substrate (succinyl-Ala-Phe-Pro-Phe-para-nitroanilide, 5 mg/mL in 2.35 mM LiCl in trifluoroethanol).
The absorbance at 390 nm versus time is monitored for 90 seconds using a spectrophotometer and the rate constants are determined from the absorbance versus time data files.

Ki [nM] | Structure (SMILES)
18 | COc1cc(C(=O)C(=O)N2CCCC[C@H]2C(=O)OCc2cccc(Oc3ccccc3)c2)cc(OC)c1OC [Compound 22]
40 | COc1cc(C(=O)C(=O)N2CCCC[C@H]2C(=O)OCCCCC2CCCCC2)cc(OC)c1OC [Compound 21]
6000 | COC(=O)C(=O)N1CCCC[C@H]1C(=O)OCCCCC1CCCCC1 [Compound 17]
